# Literature values in patent US10160755B2 (Plexxikon Inc., priority 2015, dated 2018).
# System: relapsed or chemotherapy-refractory FLT3-ITD+ AML
# Settings: relapsed or chemotherapy-refractory FLT3-ITD+ AML patients, phase II monotherapy; cited from earlier work
smiles,measurement,value
CC(C)(C)c1cc(NC(=O)Nc2ccc(-c3cn4c(n3)sc3cc(OCCN5CCOCC5)ccc34)cc2)no1 [quizartinib],composite complete remission (CRc) rate,~50%
